Among the data in patent publication US9278981B2, “Compounds and compositions for inhibiting the activity of ABL1, ABL2 and BCR-ABL1” (Novartis AG, priority 2012, dated 2016) are IC50 values, retold here.

The experiment deals with Ba/F3-BCR-ABL1-T315I cells. The experiment in a line: cells. Conditions: Mus musculus, 48 h, read-out: Ba/F3-BCR-ABL1-T315I IC50 [μM].
Consider `O=C(Nc1ccc(OC(F)(F)Cl)cc1)c1cnc(N2CC[C@@H](O)C2)c(-c2cncnc2)c1` [Example 170, (R)—N-(4-(Chlorodifluoromethoxy)phenyl)-6-(3-hydroxypyrrolidin-1-yl)-5-(pyrimidin-5-yl)nicotinamide], for which the IC50 turned out to be 0.013 µM.
The same measure for `O=C(Nc1ccc(C(F)(F)C(F)(F)F)cc1)c1cnc(N2CC[C@@H](O)C2)c(-c2cncnc2)c1` [Example 208, (R)-6-(3-Hydroxypyrrolidin-1-yl)-N-(4-(perfluoroethyl)phenyl)-5-(pyrimidin-5-yl)nicotinamide]: 0.13 µM; for `CC(F)(F)Oc1ccc(NC(=O)c2cnc(N3CC[C@@H](O)C3)c(-c3cncnc3)c2)cc1` [Example 215, (R)—N-(4-(1,1-Difluoroethoxy)phenyl)-6-(3-hydroxypyrrolidin-1-yl)-5-(pyrimidin-5-yl)nicotinamide]: 0.554 µM.
The same measure for `O=C(Nc1ccc(S(F)(F)(F)(F)F)cc1)c1cnc(N2CC[C@@H](O)C2)c(-c2cncnc2)c1` [Example 216, (R)-6-(3-Hydroxypyrrolidin-1-yl)-5-(pyrimidin-5-yl)-N-(4-(pentafluorosulfanyl)phenyl)nicotinamide]: 0.169 µM; for `O=C(Nc1ccc(SC(F)(F)Cl)cc1)c1cnc(N2CC[C@@H](O)C2)c(-c2cncc(F)c2)c1` [Example 218, (R)—N-(4-((Chlorodifluoromethyl)thio)phenyl)-5′-fluoro-2-(3-hydroxypyrrolidin-1-yl)-[3,3′-bipyridine]-5-carboxamide]: 0.01 µM.
The value for `O=C(Nc1ccc(OC(F)(F)Cl)cc1)c1cnc(N2CC[C@@H](CO)[C@@H](O)C2)c(-c2cncnc2)c1` [Example 257] was 0.038 µM.
In the case of `N#Cc1cncc(-c2cc(C(=O)Nc3ccc(OC(F)(F)Cl)cc3)cnc2N2C[C@@H](O)[C@@H](O)C2)c1` [Example 268], the IC50 was found to be 0.093 µM.
The same measure for `N[C@H]1CN(c2ccc(C(=O)Nc3ccc(OC(F)(F)Cl)cc3)cc2-c2cncc(F)c2)C[C@@H]1O` [Example 285, 4-((3S,4S)-3-Amino-4-hydroxypyrrolidin-1-yl)-N-(4-(chlorodifluoromethoxy)phenyl)-3-(5-fluoropyridin-3-yl)benzamide]: 0.165 µM; for `Cc1ncncc1-c1cc(C(=O)Nc2ccc(OC(F)(F)Cl)cc2)ccc1N1C[C@H](O)[C@@H](O)C1` [Example 297, N-(4-(Chlorodifluoromethoxy)phenyl)-4-((3S,4S)-3,4-dihydroxypyrrolidin-1-yl)-3-(4-methylpyrimidin-5-yl)benzamide]: 0.035 µM.
